Assay results taken from PubChem BioAssay AID504894 (National Center for Advancing Translational Sciences (NCATS), 2011).
The list shows a part of the results, in another mix than the full data. The source made the active and inactive calls. Calls follow the shape of the dose curve; as a rule, active = well fitted activation curve with a large enough effect; inconclusive = small, poorly fitted or top-dose-only effect, or another doubt; inactive = no such curve, though single readings can be large or run the other way.

test: Activators of T cell receptors: qHTS campaign; conditions: primary human leukocytes, anti-CD3, IL-2 HTRF, 48 h; at 9.22 µM (top of the series) unless noted; also: % of control where 0% means no effect
Text: Normally activation of naive T cells requires two signals. 1. A signal through the T cell receptor (TCR) which provides antigen specificity to the response. 2. Signals through co-stimulatory molecules, which are necessary for proliferation, survival and cytokine production. In the absence of co-stimulatory signals T cells are not effectively activated, and may even be rendered anergic or unresponsive to subsequent signaling. This lack of costimulation has been shown in multiple model systems to be a major factor in the limited strength and effectiveness of anti-tumor T cell responses. The goal of this project is to identify small molecule compounds that will stimulate T cell activation in the presence of TCR signaling but in the absence of co-stimulatory signals, thereby allowing activation of naive T cells in the absence of co-stimulation. Identification of such compounds would have clear experimental and clinical applications in instances where desirable antigen-specific immune responses are not generated due to a lack of co-stimulation, for example in the generation of anti-tumor responses. In collaboration between the National Cancer Institute and NIH Chemical Genomics Center, a high-throughput amenable screen was developed to discover small molecules that co-stimulate and activate human T cell receptors. The screen will be carried out using a novel homogeneous time resolved fluorescence energy transfer (HTRF) assay to measure production of the cytokine IL-2 by activated T cells and will be tested against the NIH Molecular Libraries Small Molecule Repository (MLSMR). NIH Chemical Genomics Center [NCGC] NIH Molecular Libraries Probe Centers Network [MLPCN] MLPCN Grant: MH090820-01 Assay Submitter (PI): Richard Hodes, National Cancer Institute, NIH
Primary human leukocytes are incubated with a-CD3 beads and compounds for 48 hr. The amount of secreted IL-2 is then assayed with a HTRF IL-2 kit. The presence of IL-2 cytokine captures the detection reagents and brings the a-IL-2-K and a-IL-2-d2 into close proximity. Upon excitation with 320nm light, the europium cryptate is capable of transferring energy to acceptor molecules within close proximity, resulting in acceptor molecule emission at 665nm.

SMILES	activation of IL-2 secretion
CC(C)c1ccc(OP(=O)(Nc2ccccn2)Oc2ccccc2F)cc1 (configuration not stated)	inactive: -2.7%
COC(=O)C1(C)COP(=O)(N2CCCCCC2)OC1 (configuration not stated)	inactive: -1.78%
ClCCSc1nnc(-c2cccnc2)o1	inactive: -7.62% [at 46.1 µM]
CCCCOc1ccc(C(=O)NCC2(N3CCCCC3)CCCCC2)cc1OC	inactive: 3.99%
Cc1cc(SC(NC(=O)c2ccccc2)C(Cl)(Cl)Cl)nc(C(C)C)n1 (configuration not stated)	inactive: 0.895% [at 46.1 µM]
CC1CCNP(=O)(N(CCCl)CCCl)O1 (configuration not stated)	inactive: -2.37%
CCOC(=O)Nc1ccc([As](=O)(O)O)c(O)c1	inactive: -2.1%
O=[N+]([O-])c1ccc(Nc2ccc(Oc3ccc([N+](=O)[O-])cc3[N+](=O)[O-])cc2)c([N+](=O)[O-])c1	inactive: 1.41%
Cc1cc(SC(NC=O)C(Cl)(Cl)Cl)ncn1 (configuration not stated)	inactive: 2.26%
O=P(Nc1ccccn1)(c1cccc2ccccc12)c1cccc2ccccc12	inactive: 5.57%
CCOC(=O)Nc1cccc([As](=O)(O)O)c1	inactive: -6.52%
O=C(COc1ccccc1)OC1CN2CCC1CC2 (configuration not stated)	inactive: -6.3%
O=C(Nc1ccncc1[N+](=O)[O-])c1ccc([N+](=O)[O-])cc1[N+](=O)[O-]	inactive: -2.28%
COP1(=S)c2c(C)nn(CCC#N)c2N=C(c2ccc(F)cc2)N1C (configuration not stated)	inactive: -8.71%
CCC(C)N(CC(C)C)C(=S)SC(NC(C)=O)C(Cl)(Cl)Cl (configuration not stated)	inactive: -0.717% [at 46.1 µM]
CCOC(=O)c1ccc(NC(=O)C(C)(CCl)SC)cc1 (configuration not stated)	inactive: -9.51%
O=C(OC1CN2CCC1CC2)c1cccc([N+](=O)[O-])c1 (configuration not stated)	inactive: 6.51%
Clc1n[nH]nc1-c1nn[nH][15n]1	inactive: 4.43%
CC(C)(C)C(=O)NC(Sc1ncccn1)C(Cl)(Cl)Cl (configuration not stated)	inactive: 2.23%
CN(CCCl)Cc1cc(Cl)c(NC2=NCCN2)c(Cl)c1	inactive: -6.03%
CCOP(=O)(Nc1ccc(C)cn1)OCC	inactive: -6.61%

SMILES	activation of IL-2 secretion
CCC1=CC2Cc3nc4ccc(Cl)cc4c(N)c3C(C1)C2 (configuration not stated)	inactive: -2.06%
O=P1(Nc2ccccn2)COc2ccccc2OC1	inactive: 21.3%
CCOP(=O)(NC(=NC(C)c1ccccc1)NC(C)c1ccccc1)OCC (configuration not stated)	inactive: -5.8%
CC1(CBr)Cn2c(nc3ccccc3c2=O)S1 (configuration not stated)	inactive: 0.414%
CN(C(=O)Cc1ccc(Cl)c(Cl)c1)[C@@H]1CCCC[C@H]1N1CCCC1	inactive: -13.8%
CC(C)/C=N\N=C(\N)N[N+](=O)[O-]	inactive: -12%
COc1ccccc1CNC(=O)COC(=O)C(O)(c1ccccc1)c1ccccc1	inactive: 3.55%
O=C(/C=C/c1ccccc1)OC1CN2CCC1CC2 (configuration not stated)	inactive: -1.21%
CCCC1OP(=O)(Nc2ccccc2)OCC1CC (configuration not stated)	inactive: 4.2%
Cc1nn(-c2ccccc2)c2c1P(=O)(N1CCOCC1)N(C)C(c1ccccc1)=N2 (configuration not stated)	inactive: -4%
Cc1ccc(C(=O)OC2CN3CCC2CC3)cc1 (configuration not stated)	inactive: 2.33%
CC1CCC(C(C)C)C(OP(=O)(Nc2ccccn2)c2ccccc2)C1 (configuration not stated)	inactive: -1.98%
NS(=O)(=O)c1cccc(NC(=O)COC(=O)C(O)(c2ccccc2)c2ccccc2)c1	inactive: -1.5%
O=P1(Nc2ccc(Br)cn2)COc2ccccc2OC1	inactive: 0.117%
O=[As](O)(c1cccs1)c1cccs1	inactive: 5.21%
Cc1ccc(OCC(=O)OC2CN3CCC2CC3)cc1 (configuration not stated)	inactive: 4.18%
Nc1cccc([As](=O)(O)c2ccccc2)c1	inactive: -3.7%
O=P1(Nc2ncccn2)COc2ccccc2OC1	inactive: -1.97%
O=C(O)COc1ccc([As](=O)(O)O)cc1[N+](=O)[O-]	inactive: -2.62%
Nc1ccccc1[As](=O)(O)c1ccccc1	inactive: 1.35%
CS(=O)(=O)c1cc([N+](=O)[O-])c2no[n+]([O-])c2c1	inactive: 4.19%

SMILES	activation of IL-2 secretion
CCOP1(=S)c2c(C)nn(CCC#N)c2N=C(c2ccccc2F)N1C (configuration not stated)	inactive: 4.46%
O=P(Nc1nccs1)(c1ccccc1)c1nc2ccccc2s1 (configuration not stated)	inactive: 5.18%
O=P(Nc1nccs1)(Oc1ccccc1)Oc1ccccc1	inactive: -8.59%
CN(C)C(=O)c1cc([N+](=O)[O-])cc2c1-c1c(cc([N+](=O)[O-])cc1[N+](=O)[O-])C2=O	inactive: 10.8%
CN(C(=O)Cc1ccc(Cl)c(Cl)c1)[C@H]1CC[C@@]2(CCCO2)C[C@@H]1N1CCCC1	inactive: 0.521%
N#CCCN(C(=O)COC(=O)C(O)(c1ccccc1)c1ccccc1)c1ccc(F)cc1	inactive: 7.9%
CCOP1(=S)c2c(C)nn(CCC#N)c2N=C(c2ccc(F)cc2)N1C (configuration not stated)	inactive: -13%
CN(C(=O)Cc1ccccc1)[C@@H]1CC[C@]2(CCCO2)C[C@H]1N1CCCC1	inactive: 1.85%
NC(=O)Nc1ccc([As](=O)(O)O)cc1	inactive: 2.57%
O=[As](O)(c1cccc(O)c1)c1cccc(O)c1	inactive: 1.65%
Cc1cccc(OCC(=O)OC2CN3CCC2CC3)c1 (configuration not stated)	inactive: 0.343%
COc1cc(C(=O)NCC2(N3CCOCC3)CCCCC2)cc(Cl)c1OC(C)C	inactive: 1.85%
O=[As](O)(O)c1cccnc1	inactive: -0.0726%
CS(=O)(=O)c1ccc(Cl)c(NC(=O)COC(=O)C(O)(c2ccccc2)c2ccccc2)c1	inactive: -1.18%
O=C(OC1CN2CCC1CC2)c1ccc(Cl)cc1 (configuration not stated)	inactive: 0.63%
COc1cc(C2NCCC3(OCCO3)C2(C)C)cc(OC)c1OC (configuration not stated)	inactive: -5.66% [at 46.1 µM]
CCOP(=O)(Nc1cccc2ccccc12)OCC	inactive: 0.316% [at 46.1 µM]
CCCOP(=S)(Nc1nc(N)cc(=O)[nH]1)OCCC	inactive: -0.567%
Nc1cccc2c([As](=O)(O)O)cccc12	inactive: -5.68%
Cc1ccc(NCCc2c([N+](=O)[O-])cc([N+](=O)[O-])cc2[N+](=O)[O-])cc1	inactive: 6.72% [at 46.1 µM]
